Source: US5747447A, “Stable polypeptide composition” (COR Therapeutics, priority 1995, dated 1998)

Sequences of proteins named here, by UniProt entry; tags and fusion partners are left off. Residues count along the entry.
UniProt P05106, 27-788: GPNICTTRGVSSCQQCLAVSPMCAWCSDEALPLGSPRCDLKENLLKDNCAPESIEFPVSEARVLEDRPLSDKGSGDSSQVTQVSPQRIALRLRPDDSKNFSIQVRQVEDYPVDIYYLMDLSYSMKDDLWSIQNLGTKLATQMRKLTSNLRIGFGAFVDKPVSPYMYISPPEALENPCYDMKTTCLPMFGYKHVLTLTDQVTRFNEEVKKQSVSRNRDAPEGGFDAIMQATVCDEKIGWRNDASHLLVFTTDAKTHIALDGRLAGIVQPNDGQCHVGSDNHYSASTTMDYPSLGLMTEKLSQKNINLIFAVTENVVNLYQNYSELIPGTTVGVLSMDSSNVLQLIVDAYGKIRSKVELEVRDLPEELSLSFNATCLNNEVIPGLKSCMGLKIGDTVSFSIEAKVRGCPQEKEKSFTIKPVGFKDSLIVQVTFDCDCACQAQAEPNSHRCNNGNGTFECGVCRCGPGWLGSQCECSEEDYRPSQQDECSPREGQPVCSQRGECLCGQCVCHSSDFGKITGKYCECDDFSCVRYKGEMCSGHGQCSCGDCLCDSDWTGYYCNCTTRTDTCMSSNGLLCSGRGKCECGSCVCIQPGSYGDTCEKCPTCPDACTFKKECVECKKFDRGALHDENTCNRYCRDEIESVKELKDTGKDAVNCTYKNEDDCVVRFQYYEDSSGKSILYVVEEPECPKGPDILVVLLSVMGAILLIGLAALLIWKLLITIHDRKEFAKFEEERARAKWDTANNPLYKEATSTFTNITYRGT
UniProt P08514, 32-1039: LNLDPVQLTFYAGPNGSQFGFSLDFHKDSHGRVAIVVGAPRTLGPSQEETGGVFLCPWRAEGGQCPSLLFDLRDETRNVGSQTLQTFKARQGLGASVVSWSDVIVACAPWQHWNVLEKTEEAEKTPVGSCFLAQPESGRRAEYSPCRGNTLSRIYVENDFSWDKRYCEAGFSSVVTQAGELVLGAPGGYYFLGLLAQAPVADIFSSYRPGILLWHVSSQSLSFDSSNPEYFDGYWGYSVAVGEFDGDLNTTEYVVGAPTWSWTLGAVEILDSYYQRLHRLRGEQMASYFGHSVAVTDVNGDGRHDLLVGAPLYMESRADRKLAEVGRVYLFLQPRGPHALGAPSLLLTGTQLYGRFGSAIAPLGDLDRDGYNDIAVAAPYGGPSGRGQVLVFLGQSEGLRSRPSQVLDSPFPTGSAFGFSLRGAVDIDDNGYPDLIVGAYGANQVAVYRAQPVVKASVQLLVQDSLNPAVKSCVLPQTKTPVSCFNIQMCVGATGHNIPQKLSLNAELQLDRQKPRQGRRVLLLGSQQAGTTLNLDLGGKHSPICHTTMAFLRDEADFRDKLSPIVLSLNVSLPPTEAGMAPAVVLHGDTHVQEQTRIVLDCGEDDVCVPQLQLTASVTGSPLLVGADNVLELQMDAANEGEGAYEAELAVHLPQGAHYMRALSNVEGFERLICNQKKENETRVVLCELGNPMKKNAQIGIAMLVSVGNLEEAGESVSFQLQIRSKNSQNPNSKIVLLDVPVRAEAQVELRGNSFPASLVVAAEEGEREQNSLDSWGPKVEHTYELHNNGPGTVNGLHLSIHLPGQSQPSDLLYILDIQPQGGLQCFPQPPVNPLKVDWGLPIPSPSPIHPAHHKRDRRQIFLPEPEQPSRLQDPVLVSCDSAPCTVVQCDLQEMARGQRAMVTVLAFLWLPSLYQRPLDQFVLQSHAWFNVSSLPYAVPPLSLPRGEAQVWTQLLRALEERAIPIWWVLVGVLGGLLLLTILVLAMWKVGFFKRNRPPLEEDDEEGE

Molecular target: ADP-induced human platelet aggregation (Homo sapiens, UniProt P05106+P08514)
Test: standard aggregation inhibition assay (ADP-induced human platelet aggregation)
Assay type: cell-based
Settings: read-out: Appr, IC50
Text: 2. Standard assays directly applied to platelet aggregation, such as those described by Gann, Z.-R., et al., J Biol Chem (1988) 263:19827-19832; Huang, T. F., et al., J Biol Chem (1987) 262:16157-16163; Biochemistry (1989) 28:661-666, cited above and incorporated herein by reference;

Substance | IC50
Mpr-K-G-D-H(2,4-DNP)-P-C-NH2 [Analog #56] | 5000 nM
Mvl-K-G-D-W-P-Pen-NH2 [Analog #58] | 1000 nM
Mvl-K-G-D-W-P-C-NH2 [Analog #49] | 1500 nM
